miR-21 FLuc: miR-21 reporter, rising signal | 340,000 tested, under 10 active | AID 2288 | HeLa miR-21 FLuc reporter, luciferase, 48 h | Potency, µM (titrated, usually from 38.3 µM), for inactives: at the highest dose reporter change, positive = more light; active = well fitted rising curve with a large enough effect; inconclusive = small, poorly fitted or top-dose-only effect; inactive = no such curve, though single readings can be large or run the other way;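 further: % of control where 0% means no effect; miR-21 action dims this reporter so a rising signal means less miR-21 action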
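Using DMEM plus 10% FBS, HeLa miR-21-FLuc cells are incubated with test compounds (final up to about 40uM) for 48 hours; firefly luciferase signal is then imaged following reagent-mediated lysis.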
p53 reactivation: mutant p53 re-activation in reporter cells; H1299 p53-A138V BP100-luciferase reporter, luminescence, 24 h; Potency, µM (highest dose often 92.2 µM), inactives show at the top dose activity change, positive = activation, actives largely listed as activators; hit rate 0.063% among 320,000; further: potency means the concentration at half of the fitted maximal effect; % of control where 0% means no effect; nearly all actives have a fitted effect of over 45% in size
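H1299 (p53-null), stable ts p53-A138V + BP100-Luc; 1000 cells/well, Opti-MEM/10% FBS; cpd 4 pt, 1:5; 24 h, 37 deg C, 5% CO2; detection reagent 10 min RT; luminescence.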
Epigenetic derep: epigenetic control regulation, reporter derepression; AID 1865; murine LDR cells, GFP reporter derepression, 30 h; Potency, µM (top dose mostly 53.9 µM), inactives show top-dose GFP activation, actives largely listed as activators; hit rate 0.2% among 280,000; further: potency means the concentration at half of the fitted maximal effect; % of control where 0% means no effect; nearly all actives have a fitted effect of over 60% in size
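Murine LDR cells bearing a silenced CMV-driven GFP reporter were exposed to compound for 30 h at 37 C. After PBS washes, GFP-positive cells (20-120 um objects) counted by laser-scanning microplate cytometry.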
PINK1 expr mod: modulators of PINK1 expression | AID 624263 | Potency, µM (series often up to 76.6 µM), without a hit: at the top dose activation (PINK1 increase), hits mostly activators | PINK1 immunofluorescence, high-content cytometry, 24 h | hit rate 0.2% among 410,000; active means well fitted activation curve with a large enough effect; inconclusive means small, poorly fitted or top-dose-only effect; cell line not stated here; further: potency means the concentration at half of the fitted maximal effect; % of control where 0% means no effect; nearly all actives have a fitted effect of over 65% in size
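Measures PINK1 amount and localization on or inside mitochondria by immunofluorescence. Stable cells get compounds at 5 concentrations for 24 hours before fixation and staining; CCCP controls included.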
IL-2 act: activates IL-2 in a cell-based reporter assay. hit rate 0.065% among 360,000. activation, % (series mostly up to about 46 µM). IL-2 activation reporter assay, cell-based qHTS; stimulated with anti-CD3/CD4/CD28 beads; in transgenic mouse T cells. AID 652025; in the data active means activation above about 50%; inconclusive means mostly about 30% to 49%; further: 0% is about no effect
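Readout is EGFP and DsRed signal by fluorescent plate cytometry after 18 h at 37 degrees C. Transgenic mouse T cells (750/well) received compound for 60 min before bead stimulation (anti-CD3, anti-CD4, anti-CD28); memory T cells served as non-tolerant control.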
uPA surface inh: blocks generation of uPA at the cell surface; cell surface uPA generation assay, qHTS; Potency, µM (series often up to 38.3 µM), inactives show at the top dose activity change, negative = inhibition, hits mostly inhibitors; hit rate 0.31% among 330,000; active means well fitted inhibition curve with a large enough effect; inconclusive means small, poorly fitted or top-dose-only effect; inactive means no such curve, though single readings can be large or run the other way; tested in mouse RAW 264.7 cells; further: potency means the concentration at half of the fitted maximal effect; on the % scale 0 is the no-effect control and ±100 the full control effect; nearly all actives have a fitted effect of over 55% in size
Numbers without * were called inactive; ? = inconclusive; · = not tested or not shown. Most compounds without a hit are left out; they make up all but 0.62% or so of the library. Unless noted, the call rests on the fitted dose curve; in most records, active means well fitted curve in the direction sought with a large enough effect; inconclusive means small, poorly fitted or top-dose-only effect, or another doubt; inactive means no such curve, though single readings can be large; an effect the other way counts as inactive or inconclusive.

Abbreviations: A = miR-21 FLuc; B = p53 reactivation; C = Epigenetic derep; D = PINK1 expr mod; E = IL-2 act; F = uPA surface inh
COc1ccc(-c2cc(C(=O)OCC(=O)c3c(N)n(C)c(=O)n(C)c3=O)c3ccccc3n2)cc1
  A: -2% | B: 1% | C: ? | D: 2% | E: -3 | F: -1%
CC(C)(C)OC(=O)NCCCCCc1cn([C@@H](CO)C(=O)NCCCCCCCCCCC(=O)N2CCN(C(=O)OC(C)(C)C)CC2)nn1
  A: · | B: -18% | C: · | D: 2% | E: -1 | F: 11µM*
CCOc1ccc2[nH]cc(C(=O)NCc3ccccc3)c(=O)c2c1
  A: 8% | B: ? | C: · | D: 6% | E: -1 | F: ?
O=C(NCc1ccccc1)c1c[nH]c2cc3c(cc2c1=O)OCCO3
  A: -77% | B: 11µM* | C: 1% | D: ? | E: -3 | F: ·
CCC(C)NC(=O)C1CCN(S(=O)(=O)c2cc([N+](=O)[O-])ccc2Cl)CC1 (stereo not drawn)
  A: 6% | B: 1% | C: -1% | D: -2% | E: 0 | F: -10%
CC1CCN(S(=O)(=O)c2cc([N+](=O)[O-])ccc2Cl)CC1
  A: 7% | B: 26% | C: 2% | D: 2% | E: 0 | F: 7.9µM*
Cc1nc(NCc2c(C)nn(C)c2Cl)sc1-c1ccn(CC2COc3ccccc3O2)n1 (stereo not drawn)
  A: · | B: · | C: · | D: -1% | E: · | F: ·
COc1ccc2c(c1OC)C(=O)N(c1cccc(C)c1)C2
  A: -15% | B: ? | C: 1% | D: 0% | E: -2 | F: -13%
COc1ccc2c(c1OC)C(=O)N(c1cccc(C(F)(F)F)c1)C2
  A: -57% | B: ? | C: 0% | D: 3.2µM* | E: -1 | F: ?
CCc1cc(C(=O)NCC2Cc3cc(-c4ccccc4C(C)=O)ccc3O2)no1 (stereo not drawn)
  A: · | B: · | C: · | D: 0% | E: · | F: ·
Cn1cc(CN2CCCC(C(=O)Nc3cccc(-n4cccn4)c3)C2)cn1 (stereo not drawn)
  A: 0% | B: -2% | C: · | D: 0% | E: -3 | F: -3%
Cn1cc(CN2CCCC(C(=O)Nc3ccc(-c4cccc(F)c4)cc3)C2)cn1 (stereo not drawn)
  A: 5% | B: 0% | C: · | D: 8% | E: -1 | F: 8.9µM*
CCn1cc(CN2CCC(C(=O)Nc3cccc(-c4cccc(F)c4)c3)CC2)cn1
  A: -10% | B: 28% | C: · | D: 1% | E: -5 | F: -5%
Cc1c(CN2CCCC(C(=O)Nc3cccc(-n4cccn4)c3)C2)cnn1C (stereo not drawn)
  A: 0% | B: 11% | C: · | D: -1% | E: 2 | F: 7.9µM*
COc1ccc(-c2n[nH]c3c2CN(C(=O)c2ccc(OC)c(OC)c2)CC3)cc1
  A: 18% | B: -4% | C: · | D: 13% | E: 0 | F: 3.2µM*
Cc1cc(C(=O)COC(=O)c2ccccc2O)c(C)n1CC1CCCO1 (stereo not drawn)
  A: · | B: -26% | C: · | D: 0% | E: 0 | F: ?
Cc1cc(C(=O)COC(=O)c2cccnc2Cl)c(C)n1CC1CCCO1 (stereo not drawn)
  A: -7% | B: -9% | C: 0% | D: 2% | E: -1 | F: 1.6µM*
COc1cc(/C=C/c2onc(C)c2[N+](=O)[O-])cc(OC)c1OC
  A: · | B: · | C: · | D: 5% | E: 0 | F: -3%
Cc1noc(/C=C/c2nn(C)cc2Cl)c1[N+](=O)[O-]
  A: 21% | B: -13% | C: 4% | D: 0% | E: 0 | F: 4.5µM*
Cc1onc(-c2ccccc2Cl)c1C(=O)N1CCN(c2cccc(Cl)c2)CC1
  A: 17% | B: 0% | C: 2% | D: 12% | E: -4 | F: 2.2µM*
Cc1nc(SCC(=O)c2cc3ccccc3oc2=O)c(C#N)c(-c2cccs2)c1C(=O)Nc1ccccc1
  A: 5% | B: 3% | C: 0% | D: 40µM* | E: -5 | F: 3%
COc1ccc(C(=O)NCCN2Cc3ccccc3OC(c3ccsc3)C2)c(OC)n1 (stereo not drawn)
  A: · | B: · | C: · | D: 0% | E: · | F: ·
CN(C)CCNC(=O)C(=O)Nc1ccc2c(c1)N(S(=O)(=O)c1cccs1)CCC2
  A: · | B: -3% | C: · | D: 10% | E: 1 | F: 4.5µM*
O=C(Nc1ccccc1)c1ccccc1NS(=O)(=O)c1ccc(Cl)s1
  A: ? | B: 9% | C: -1% | D: ? | E: -4 | F: -6%
O=C(Nc1ccccc1Cc1ccccc1)c1ccccc1NS(=O)(=O)c1ccc(Cl)s1
  A: ? | B: 3% | C: -1% | D: 11µM* | E: -5 | F: ?

Part of the list above, with two lines to a compound.
Below each compound: miR-21 FLuc | p53 reactivation | Epigenetic derep | PINK1 expr mod | IL-2 act | uPA surface inh
- COc1cc(/C=C/c2onc(C)c2[N+](=O)[O-])cc(OC)c1OC
  · | · | · | 5% | 0 | -3%
- Cc1noc(/C=C/c2nn(C)cc2Cl)c1[N+](=O)[O-]
  21% | -13% | 4% | 0% | 0 | 4.5µM*
- Cc1onc(-c2ccccc2Cl)c1C(=O)N1CCN(c2cccc(Cl)c2)CC1
  17% | 0% | 2% | 12% | -4 | 2.2µM*

Additional compounds follow:
Abbreviations: A = miR-21 FLuc; B = p53 reactivation; C = Epigenetic derep; D = PINK1 expr mod; E = IL-2 act; F = uPA surface inh
Cc1ccc(NC(=O)c2ccccc2NS(=O)(=O)c2ccc(Cl)s2)cc1
  A: ? | B: · | C: -1% | D: 20µM* | E: -1 | F: -5%
COc1cc(CN2CCCC(n3cc(C(=O)N4CCCC4)nn3)C2)cc(OC)c1 (stereo not drawn)
  A: · | B: · | C: · | D: 1% | E: · | F: ·
CCOC(=O)/C=C/C(=O)OCC(=O)N1CCN(C(=O)c2ccco2)CC1
  A: 2% | B: -35% | C: · | D: ? | E: -4 | F: 7.9µM*
O=C(Nc1cc(=O)[nH]c(=O)[nH]1)c1cc(Cl)ccc1Cl
  A: 20% | B: 8% | C: · | D: 3% | E: 1 | F: 3.5µM*
CCOc1ccc(-n2nc3ccc(N)cc3n2)cc1
  A: 22% | B: 2% | C: · | D: 1% | E: 1 | F: 10µM*
CCOC(=O)C1CCN(Cc2ccc(O)c3ncccc23)CC1
  A: ? | B: -53% | C: 5.6µM* | D: 25µM* | E: -4 | F: -9%
CC1CCN(S(=O)(=O)c2ccc3nc(Nc4cccc(F)c4)ccc3c2)CC1
  A: 22% | B: · | C: 4% | D: 16µM* | E: · | F: ·
Cc1ccc(Nc2ccc3cc(S(=O)(=O)N4CCC(C)CC4)ccc3n2)c(Cl)c1
  A: 3% | B: · | C: -1% | D: -1% | E: · | F: ·
O=c1c2ccccc2c(C=Nc2ccccc2O)c(O)n1-c1nccs1
  A: 19% | B: 2% | C: -1% | D: 0% | E: 64* | F: ?
CCn1c(SCC(=O)N2CCN(c3ccccc3)CC2)nnc1-c1cc2cc(Cl)ccc2o1
  A: -1% | B: 0% | C: -8% | D: 11µM* | E: 1 | F: 5%
CNc1nc(N2CCCN(C)CC2)nc2cc(OC)c(OC)cc12
  A: · | B: · | C: · | D: 3% | E: · | F: ·
COc1cc(=O)n2c(c1C(=O)NCc1ccco1)CCN(Cc1ccc(F)cc1Cl)CC2
  A: · | B: · | C: · | D: 0% | E: · | F: ·
Cc1cccc(C)c1OCC(=O)Nc1nonc1-c1ccc(Br)cc1
  A: -3% | B: · | C: -2% | D: ? | E: · | F: ·
Cc1cc(C)cc(OC(C)C(=O)Nc2nonc2-c2ccc(Br)cc2)c1 (stereo not drawn)
  A: 0% | B: · | C: -1% | D: 16µM* | E: · | F: ·
COc1cccc2sc(Nc3nnc(-c4ccc(F)cc4)o3)nc12
  A: 5% | B: -1% | C: -1% | D: -2% | E: -3 | F: 5.6µM*
COc1cccc2sc(Nc3nnc(-c4cccs4)o3)nc12
  A: 6% | B: ? | C: 1% | D: 3% | E: 5 | F: -13%
O=C(Cc1sc(Nc2ccccc2)nc1-c1ccccc1)NCc1ccccc1
  A: -3% | B: 40µM* | C: -1% | D: 2% | E: -1 | F: -1%
Cc1ccc2cc(CNC(C)CO)c(N3CCC(O)CC3)nc2c1 (stereo not drawn)
  A: · | B: · | C: · | D: 0% | E: · | F: ·
Cc1cc(C)c(C(=O)OCC(=O)Nc2cccc(S(=O)(=O)N3CCCCC3)c2)c(C)c1
  A: · | B: 2% | C: · | D: 7% | E: -4 | F: 8.9µM*
O=C(NC1CCCC1)c1sc(=S)n2c1[nH]c(=O)c1ccccc12
  A: -7% | B: ? | C: 0% | D: 32µM* | E: -2 | F: 0%
O=C1/C(=C\c2ccco2)CCC/C1=C\c1ccco1
  A: 0% | B: 25µM* | C: ? | D: ? | E: 1 | F: -7%
